Test results as given in article PMC3723878 (PLoS ONE, 2013).

Target: T1, α1A-AR (Homo sapiens, UniProt P35348)
T1 sequence (P35348 1-466): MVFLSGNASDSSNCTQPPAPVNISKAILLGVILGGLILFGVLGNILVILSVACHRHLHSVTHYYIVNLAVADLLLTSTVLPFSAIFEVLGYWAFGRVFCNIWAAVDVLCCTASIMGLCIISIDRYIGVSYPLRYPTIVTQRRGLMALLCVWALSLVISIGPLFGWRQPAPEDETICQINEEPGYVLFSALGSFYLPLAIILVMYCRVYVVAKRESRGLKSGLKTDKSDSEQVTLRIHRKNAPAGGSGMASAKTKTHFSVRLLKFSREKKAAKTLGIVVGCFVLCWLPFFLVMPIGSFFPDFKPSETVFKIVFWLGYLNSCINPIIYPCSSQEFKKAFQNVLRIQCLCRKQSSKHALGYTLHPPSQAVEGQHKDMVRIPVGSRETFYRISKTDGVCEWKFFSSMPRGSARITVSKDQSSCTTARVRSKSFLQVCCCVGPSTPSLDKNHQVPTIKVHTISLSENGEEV
Format: binding
Set-up: expressed in transfected cells; host or cells: COS-7, transient (calcium phosphate)
Method: Binding experiments were performed in a 100 µL reaction mix at room temperature in buffer composed of 50 mM Tris-HCl, pH 7.4, 10 mM MgCl2, 1 g/L BSA. Reactions were stopped by filtration through 96 GF/C filter plates pre-incubated with 0.5% polyethylenimine.
Binding data were analyzed by nonlinear regression using the KaleidaGraph 4.0 software (Synergy software, Reading, PA). pKD values and Bmax (number of binding sites) were determined by applying a nonlinear regression to data obtained with saturation binding assays. The nonlinear regression used was BS = (Bmax*A)/KD+A, where BS is the specific binding, Bmax the number of binding sites, A the concentration of radioligand, and KD the dissociation constant of the radioligand. Data resulting from competition binding assays were analyzed using the Hill equation for IC50 and curve slope estimations. […] The linear curves were analyzed with IC50 = Ki+(L/KD)*Ki. Dissociation kinetics were analyzed using a simple equation of exponential decay BS * exp (-Koff*t), where BS is the specific binding at time zero and Koff is the dissociation rate constant. Results are expressed as mean ± s.e. mean from n independent experiments. One-way Anova test was used to compare values. A p<0.05 was accepted for statistical significance.

With `COc1cc2nc(N3CCN(C(=O)c4ccco4)CC3)nc(N)c2cc1OC` [3H-prazosin] the “^3H-prazosin dissociation rate” value was 0.05 ± 0.01 min⁻¹.
